Results taken from patent US11987575B2, “Tricyclic compounds as BCR-ABL inhibitors” (ASCENTAGE PHARMA (SUZHOU) CO., LTD., priority 2019, dated 2024).

Protein sequences, listed by entry. Tags and fused reporters are not part of them. Lines headed by an entry give the natural chain unless they say otherwise; changes in a name come on top.
UniProt P00519, whole entry: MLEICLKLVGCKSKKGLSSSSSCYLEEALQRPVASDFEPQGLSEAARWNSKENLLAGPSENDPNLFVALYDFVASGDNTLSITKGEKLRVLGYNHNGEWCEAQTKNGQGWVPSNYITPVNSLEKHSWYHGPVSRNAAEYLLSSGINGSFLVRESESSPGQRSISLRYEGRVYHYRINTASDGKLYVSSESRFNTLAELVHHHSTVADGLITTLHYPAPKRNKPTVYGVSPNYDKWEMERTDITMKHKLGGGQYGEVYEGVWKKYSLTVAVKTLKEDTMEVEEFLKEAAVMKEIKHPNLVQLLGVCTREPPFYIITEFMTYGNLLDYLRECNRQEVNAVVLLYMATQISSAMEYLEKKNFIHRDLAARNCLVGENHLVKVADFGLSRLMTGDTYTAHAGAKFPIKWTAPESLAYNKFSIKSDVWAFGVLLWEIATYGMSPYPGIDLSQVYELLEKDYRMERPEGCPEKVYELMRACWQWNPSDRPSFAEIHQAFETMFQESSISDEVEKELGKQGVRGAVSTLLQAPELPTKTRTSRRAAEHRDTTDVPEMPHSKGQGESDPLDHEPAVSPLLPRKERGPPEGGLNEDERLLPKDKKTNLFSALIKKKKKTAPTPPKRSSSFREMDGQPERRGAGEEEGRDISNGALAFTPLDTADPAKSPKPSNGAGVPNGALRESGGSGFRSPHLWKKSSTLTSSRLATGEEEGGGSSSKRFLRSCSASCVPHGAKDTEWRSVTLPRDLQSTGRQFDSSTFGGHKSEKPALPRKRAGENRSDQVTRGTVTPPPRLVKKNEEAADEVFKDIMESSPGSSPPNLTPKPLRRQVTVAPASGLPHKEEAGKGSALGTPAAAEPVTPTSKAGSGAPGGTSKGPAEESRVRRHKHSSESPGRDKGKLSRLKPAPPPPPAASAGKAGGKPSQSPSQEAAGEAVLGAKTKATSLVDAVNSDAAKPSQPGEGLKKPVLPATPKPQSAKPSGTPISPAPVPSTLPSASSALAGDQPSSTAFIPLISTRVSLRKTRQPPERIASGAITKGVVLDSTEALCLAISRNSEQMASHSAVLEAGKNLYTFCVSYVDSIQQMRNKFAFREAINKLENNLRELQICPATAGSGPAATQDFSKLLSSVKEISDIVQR
UniProt P00519, whole entry T315I: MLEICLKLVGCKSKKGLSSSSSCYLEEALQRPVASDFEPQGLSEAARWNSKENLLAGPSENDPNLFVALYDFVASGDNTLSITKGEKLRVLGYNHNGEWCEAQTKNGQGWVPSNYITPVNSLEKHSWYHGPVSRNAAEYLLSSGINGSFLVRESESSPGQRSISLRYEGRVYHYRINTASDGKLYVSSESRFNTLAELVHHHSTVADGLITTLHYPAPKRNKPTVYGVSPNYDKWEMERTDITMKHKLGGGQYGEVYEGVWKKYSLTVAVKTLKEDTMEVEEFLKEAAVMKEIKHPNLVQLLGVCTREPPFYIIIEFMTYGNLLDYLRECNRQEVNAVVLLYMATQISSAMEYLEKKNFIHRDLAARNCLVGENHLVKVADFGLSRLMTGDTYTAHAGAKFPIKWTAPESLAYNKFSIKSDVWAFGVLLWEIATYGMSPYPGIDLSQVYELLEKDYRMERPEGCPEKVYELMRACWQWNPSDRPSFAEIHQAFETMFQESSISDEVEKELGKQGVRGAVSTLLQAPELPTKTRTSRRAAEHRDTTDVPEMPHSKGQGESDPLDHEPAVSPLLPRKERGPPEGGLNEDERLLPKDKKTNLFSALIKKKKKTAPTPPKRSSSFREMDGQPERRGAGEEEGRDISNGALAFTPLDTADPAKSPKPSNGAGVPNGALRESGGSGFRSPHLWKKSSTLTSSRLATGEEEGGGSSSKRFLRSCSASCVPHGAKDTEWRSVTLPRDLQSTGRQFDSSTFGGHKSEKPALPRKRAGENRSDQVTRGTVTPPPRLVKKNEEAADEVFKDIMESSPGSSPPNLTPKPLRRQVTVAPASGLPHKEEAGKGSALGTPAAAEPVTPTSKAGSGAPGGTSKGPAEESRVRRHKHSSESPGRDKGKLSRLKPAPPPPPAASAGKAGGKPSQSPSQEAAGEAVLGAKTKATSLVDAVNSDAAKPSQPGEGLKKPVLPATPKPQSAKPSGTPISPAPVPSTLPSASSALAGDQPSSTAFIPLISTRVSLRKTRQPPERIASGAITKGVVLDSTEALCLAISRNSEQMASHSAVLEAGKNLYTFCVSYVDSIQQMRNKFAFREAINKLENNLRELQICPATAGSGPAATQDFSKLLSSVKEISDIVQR

Columns and labels:
BaF3(WT) = BaF3(WT) (Homo sapiens, UniProt P00519); assay: WST (CCK-8) anti-proliferative assay, BaF3 WT; details: read-out: BaF3(WT); BaF3 WT cells, 72 h treatment, CCK-8 readout OD 450 nm
BaF3 (T315I mutant) = BaF3 (T315I mutant) (Homo sapiens, UniProt P00519, T315I, cells depend on it); assay: WST (CCK-8) anti-proliferative assay, BaF3 T315I mutant; details: read-out: BaF3 (T315I mutant), 72 h treatment, CCK-8 readout OD 450 nm

GI50 (BaF3(WT)) [µM]	GI50 (BaF3 (T315I mutant)) [µM]	Compound
0.028	0.123	CC(C)(C)CN1c2c(-c3ccn[nH]3)cc(C(=O)Nc3ccc(OC(F)(F)Cl)cc3)cc2C2CCS(=O)(=O)CC21 (single isomer, unassigned)
0.003	0.035	CC(=O)NC1CCC2c3cc(C(=O)Nc4ccc(OC(F)(F)Cl)cc4)cc(-c4ccn[nH]4)c3N(C(C)C)C12 (single isomer, unassigned) [4A]
0.535	1.27	CC(=O)NC1CCC2c3cc(C(=O)Nc4ccc(OC(F)(F)Cl)cc4)cc(-c4ccn[nH]4)c3N(C(C)C)C12 (single isomer, unassigned) [4b]
